## Ab-14 heavy chain CDR variants: yeast mating affinities

Binding partner: SARS-CoV-2 spike HR2 peptide, sequence PDVDLGDISGINAS.

Ab-14 is the parent antibody, in scFv form: VH, then a 15-residue (Gly4Ser)3 linker, then VL. The light chain is unchanged in all variants.
VH: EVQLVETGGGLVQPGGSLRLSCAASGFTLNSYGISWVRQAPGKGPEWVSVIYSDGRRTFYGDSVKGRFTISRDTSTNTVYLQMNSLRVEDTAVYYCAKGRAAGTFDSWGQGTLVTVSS
VL: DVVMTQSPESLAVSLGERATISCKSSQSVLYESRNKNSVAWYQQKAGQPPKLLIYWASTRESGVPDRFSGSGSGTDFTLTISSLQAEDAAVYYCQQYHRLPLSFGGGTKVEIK

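These sequences belong to a second round, designed from the earlier measurements on random variants of the parent. Group labels follow the data file (Ctrl: baseline library sampled from a position-specific scoring matrix, with some repeated check sequences; GPLM: also part of the Gaussian process libraries; Gen: genetic algorithm; Gibbs: Gibbs sampling; a sequence that several methods proposed may carry one label only). AlphaSeq pools MATa yeast showing the antibodies with MATalpha yeast showing the peptide. The frequency of each diploid, read from paired DNA barcodes, reflects how well the two displayed proteins bind. Scores were corrected for input abundance and mapped to Kd with protein pairs of known affinity run in the same pool. The assay was run in six technical replicates.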

Variants are written as CDR1, CDR2 and CDR3 of the heavy chain (limits as in the source). Parent: GFTLNSYGIS, VIYSDGRRTFYGDSVK, GRAAGTFDS. The read-out is the apparent dissociation constant on a log10 scale (nM): the lower, the stronger. Replicates are averaged; those with no signal do not enter the mean. "ND" marks a missing value. The strain was present, yet no cells mated with the target were sequenced in that replicate, which points to weak or no binding. A sequence measured in both rounds can read differently, since the two assays cover different ranges.

CDR-H1	CDR-H2	CDR-H3	group	log10 Kd, replicates	mean, log10 nM	control signals
GETLNEYGIS	VIYSDGRRTFYGDSVK	GRNSATFDS	Ctrl	ND / ND / ND / ND / ND / ND	ND	3/18 (2.73)
GFHLNSYGIS	VIYSDGRRTFYGDSVK	GRAAGTFDS	Ctrl	0.32 / 0.69 / -0.51 / -0.28 / 0.09 / -0.29	0.00	0/18
KFTLNDYGIS	VIYSDGRRTFYDDSVK	GREAHTVDS	Ctrl	ND / ND / ND / ND / ND / ND	ND	0/18
GFTLMSYGIS	VIYSDGRRTFYGDSVK	GRAAGTFDS	Ctrl	ND / ND / ND / ND / ND / ND	ND	0/18
GFTLLSYGIS	VIYSDGLRTFYGHSVK	GRTHGTFDS	Ctrl	ND / ND / ND / ND / ND / ND	ND	0/18
GFTLNSYGIS	VIYFDGRRTQYGDSVS	GRAAGTFDS	Ctrl	ND / ND / ND / ND / ND / ND	ND	0/18
GFTLNEYGIS	VIYSDGRRTFYGDSVK	GRHAGTFDS	Ctrl+GPLM_Gen	-0.02 / 0.44 / 0.07 / -0.04 / 0.17 / 0.26; 0.67 / 0.92 / 0.45 / 0.85 / 0.62 / 0.80	0.43	1/36 (2.59)
GFTLNSYGIS	VIYSDGRRTAYGDSVK	RRAAGTFDS	Ctrl	ND / ND / ND / ND / ND / ND	ND	0/18
GFTLNSYGIS	VIYSDGRRTFYGDSVK	GAAQGTFDS	Ctrl	ND / 1.61 / ND / ND / ND / ND	1.61	0/18
GFTLNSYGIS	VIYSDGRRTFYEDDVK	GRAAGTFDL	Ctrl	ND / ND / ND / ND / ND / ND	ND	0/18
GFWLNSYGIS	VIYSDGRRTFYADSVK	CTAAGTFDS	Ctrl	ND / ND / ND / ND / ND / ND	ND	0/18
GFTLNSYGIS	VIYGDGRRTFYGDSVK	GSAAGTFDQ	Ctrl	ND / ND / ND / ND / ND / ND	ND	0/18
GFNLNSYGIS	VIYSDGKRTFYGDSVK	GRAAGTFDS	Ctrl	1.07 / 0.98 / 1.09 / 0.73 / 0.64 / 1.05	0.92	3/18 (2.85)
GFRLNSYGIT	VIYSDGRRTFYNDSVK	GTDATTFDS	Ctrl	ND / ND / ND / ND / ND / ND	ND	0/18
GFELNSYGIS	VIYSDGRRTFYGDSVK	GDAAGTFDG	Ctrl	ND / ND / ND / ND / ND / ND	ND	0/18
GFTLNSYGIS	VIYSDGRRTWYGDSVK	GRAAGTFDS	Ctrl	0.99 / 1.18 / 0.53 / 0.68 / 1.44 / 0.84	0.94	0/18
GFTLNMYGIS	VIYSDGRRTIYSDSVR	GHAAGTFKS	Ctrl	ND / ND / ND / ND / ND / ND	ND	0/18
GFWLNDYGIS	VIYSDGRRTFYGDSVR	GRAAGTFDQ	Ctrl	1.37 / 0.56 / 0.42 / 1.16 / 1.38 / 0.73	0.94	1/18 (1.88)
GFTLNSYGIH	VIYSDGRRTFYIDSVK	VRTAGTFDS	Ctrl	ND / ND / ND / ND / ND / ND	ND	0/18
GFGLSSYGIS	VIYSDGRRTFYGDQVK	GRAAGTFDS	Ctrl	ND / ND / ND / ND / ND / ND	ND	0/18
GFTLNSYGIS	VIYADGRRTFYGDSVK	GVAAGTFHS	Ctrl	ND / 2.30 / ND / ND / 3.37 / ND	2.83	1/18 (3.10)
GFTLNSYGIS	VIYSDGRRTFYTDSVK	GRMAGTFDS	Ctrl	1.55 / 1.75 / 2.20 / 1.53 / 1.54 / 3.02	1.93	0/18
GFCLNSYGIS	VIYSDGVRTFYRDSVK	GTVAGTFDS	Ctrl	0.01 / -0.43 / 0.56 / 0.32 / 0.05 / -0.03	0.08	0/18
RETLWSYGIS	VIYSDGRRTFYGDSVK	GRAAGTFDS	Ctrl	ND / ND / ND / ND / ND / ND	ND	1/18 (1.72)
GFTIESYGIS	VIYSDGRRTFYHDSVK	GRACGTFDS	Ctrl	ND / ND / ND / ND / ND / ND	ND	0/18
GFTLNDYGIS	VIYSDGIRTFYGDSVK	GRAAGTFDS	Ctrl	0.76 / 0.38 / 0.57 / 0.24 / 0.88 / 0.86	0.62	0/18
GFTLLSYGIS	VIYSDGRRTFYIDSVK	RRAAGTFDS	Ctrl	ND / ND / ND / ND / ND / ND	ND	0/18
GFTLNSYGIS	VIYSDGKRTFYGDSVK	GEAAGTFDS	Ctrl+GPLM_Gibbs	0.75 / 1.06 / 1.40 / 1.51 / 0.63 / 1.60; 1.27 / 0.80 / ND / ND / 0.44 / 2.07	1.15	0/36
LFALDSYGIS	VIYSDGFRTFYGDSVK	GRAAGTFDS	Ctrl	ND / ND / ND / ND / ND / ND	ND	0/18
GFTLNSYGIS	VIYADGRRTFYGDSVK	GRVAGRFPS	Ctrl	ND / ND / ND / ND / ND / ND	ND	0/18
KFTLNSYGIS	VIYSDGLRQFYGDSVK	GREAGTFDS	Ctrl	ND / ND / ND / ND / ND / ND	ND	0/18
GFTLNSAGIS	VIYSDGRRTFYGDDVK	GRAAGLFDS	Ctrl	ND / ND / ND / ND / ND / ND	ND	0/18
GFTLNSYGIS	VIYSDGRRTFYGDSFK	GAAAGKFDS	Ctrl	ND / ND / ND / ND / ND / ND	ND	0/18
GFTLNQYGIS	VIYSDGHRTFYGDSVK	GRAAGTFDS	Ctrl	ND / 0.22 / ND / 1.22 / 1.35 / 0.81	0.90	0/18
GFTLNSYGIS	VIYSDGQRTSYGDSVK	GRAAGTTDS	Ctrl	ND / ND / ND / ND / ND / ND	ND	0/18
GFTNNSYGIS	VIYSDGRRTFYGDSVK	GTQAGPFDS	Ctrl	ND / ND / ND / ND / ND / ND	ND	0/18
GFTLNSYGIS	VIYSDGRRTFYNDSVK	GQAAGTMDS	Ctrl	ND / ND / ND / ND / ND / ND	ND	1/18 (1.23)
GFTLNDYGIS	VIYSDGRRTFGGDSVK	GRAAGTFVS	Ctrl	ND / ND / ND / ND / ND / ND	ND	0/18
GFTLNEYGIS	VIYSDGQRTFYTDDVK	GRAAGTFDS	Ctrl	0.39 / 0.92 / 0.09 / 0.34 / 0.37 / 0.73	0.47	1/18 (3.01)
GLTLGDYGIS	VIYSDGRRQAYGDSVR	GRAAGTFDS	Ctrl	ND / ND / ND / ND / ND / ND	ND	0/18
GFELNEYGIS	VIYSDGRRTFYGDDVK	GRAAGTFDS	Ctrl	1.28 / 0.54 / 0.77 / 0.03 / 0.26 / 0.79	0.61	0/18
GFNLNSYGIS	VIYSDGRRTFYGDSVK	GRAAGEFDS	Ctrl	ND / ND / ND / ND / ND / ND	ND	0/18
GFTLNDHGIS	VIYSDGRRTFYGDSVK	GRLAGTFDS	Ctrl	ND / ND / ND / 2.41 / ND / 2.38	2.40	0/18
GFDLNSYGIS	VIYSDGRRTEYGDSVR	GRAAGTFDS	Ctrl	ND / 0.63 / ND / ND / 0.41 / ND	0.52	0/18
GFTLNSYGIS	VIYSDGRRTFYSDSVK	VRNAGTFDS	Ctrl	ND / ND / ND / ND / ND / ND	ND	0/18
GFNLNDYGIS	VIYSDGRRTAYGDAVK	GRAIGTFDS	Ctrl	ND / ND / ND / ND / ND / ND	ND	0/18
GFTLNDYGIS	VIYSDGRRTFYGDSVA	GTAAGTFDS	Ctrl	1.30 / 0.33 / 0.61 / 0.51 / 1.22 / 0.57	0.76	0/18
RFTLNSYGIS	VIYSDGRRTAYGDSVK	GIAAGTGDS	Ctrl	ND / ND / ND / ND / ND / ND	ND	0/18
GFTLNSYGIS	VIYSDGRRTFYGDNVK	GRAAGKFDS	Ctrl	ND / ND / ND / ND / ND / ND	ND	0/18
GFWLNSYGIS	VIYADGRRTFYSDSVK	GRQAGTSDS	Ctrl	ND / ND / ND / ND / ND / ND	ND	0/18

Picked from the list: the 8 lowest averages where every replicate gave a value.

CDR-H1,CDR-H2,CDR-H3,group,"log10 Kd, replicates","mean, log10 nM",control signals
GFHLNSYGIS,VIYSDGRRTFYGDSVK,GRAAGTFDS,Ctrl,0.32 / 0.69 / -0.51 / -0.28 / 0.09 / -0.29,0.00,0/18
GFCLNSYGIS,VIYSDGVRTFYRDSVK,GTVAGTFDS,Ctrl,0.01 / -0.43 / 0.56 / 0.32 / 0.05 / -0.03,0.08,0/18
GFTLNEYGIS,VIYSDGRRTFYGDSVK,GRHAGTFDS,Ctrl+GPLM_Gen,-0.02 / 0.44 / 0.07 / -0.04 / 0.17 / 0.26; 0.67 / 0.92 / 0.45 / 0.85 / 0.62 / 0.80,0.43,1/36 (2.59)
GFTLNEYGIS,VIYSDGQRTFYTDDVK,GRAAGTFDS,Ctrl,0.39 / 0.92 / 0.09 / 0.34 / 0.37 / 0.73,0.47,1/18 (3.01)
GFELNEYGIS,VIYSDGRRTFYGDDVK,GRAAGTFDS,Ctrl,1.28 / 0.54 / 0.77 / 0.03 / 0.26 / 0.79,0.61,0/18
GFTLNDYGIS,VIYSDGIRTFYGDSVK,GRAAGTFDS,Ctrl,0.76 / 0.38 / 0.57 / 0.24 / 0.88 / 0.86,0.62,0/18
GFTLNDYGIS,VIYSDGRRTFYGDSVA,GTAAGTFDS,Ctrl,1.30 / 0.33 / 0.61 / 0.51 / 1.22 / 0.57,0.76,0/18
GFNLNSYGIS,VIYSDGKRTFYGDSVK,GRAAGTFDS,Ctrl,1.07 / 0.98 / 1.09 / 0.73 / 0.64 / 1.05,0.92,3/18 (2.85)

Three control strains display no target. For all heavy chain designs, 1% of the pairings with them gave a signal, with a median of 2.08 and one signal in twenty below 0.84, so weak values seen in few replicates may be background. The control count says in how many pairings with the empty strains this scFv gave a signal, with their mean in brackets. The authors' rule: three or more of the six replicates give a measured affinity, fewer mean a poor binder. Where one sequence has several entries in the source, the replicates are listed entry by entry, parted by semicolons.

Reference: Li et al. 2023, doi:10.1038/s41467-023-39022-2. File: FLAb, binding data.